Data: the supplement of paper PMC11246515
± gives the standard deviation of the averaged measurements.

Assay: total protein half-life in vivo (active degradation + dilution); higher = more stable protein
[1] = E. coli NCM3722 delta-clpP delta-lon delta-hslV, growth: N-lim chemostat, doubling time 6 h
[2] = E. coli NCM3722 delta-clpP, growth: N-lim chemostat, doubling time 6 h
[3] = E. coli NCM3722 delta-hslV, growth: N-lim chemostat, doubling time 6 h
[4] = E. coli NCM3722 delta-lon, growth: N-lim chemostat, doubling time 6 h
[5] = E. coli NCM3722 delta-smpB, growth: N-lim chemostat, doubling time 6 h
[6] = wild type E. coli NCM3722, growth: C-lim chemostat, doubling time 3 h
[7] = wild type E. coli NCM3722, growth: C-lim chemostat, doubling time 6 h
[8] = wild type E. coli NCM3722, growth: C-lim chemostat, doubling time 12 h
[9] = wild type E. coli NCM3722, growth: N-lim chemostat, doubling time 6 h
[10] = wild type E. coli NCM3722, growth: N-lim chemostat, doubling time 12 h
[11] = wild type E. coli NCM3722, growth: P-lim chemostat, doubling time 6 h
[12] = wild type E. coli NCM3722, growth: P-lim chemostat, doubling time 12 h

Sequence | total protein half-life in vivo [1] [h] | total protein half-life in vivo [2] [h] | total protein half-life in vivo [3] [h] | total protein half-life in vivo [4] [h] | total protein half-life in vivo [5] [h] | total protein half-life in vivo [6] [h] | total protein half-life in vivo [7] [h] | total protein half-life in vivo [8] [h] | total protein half-life in vivo [9] [h] | total protein half-life in vivo [10] [h] | total protein half-life in vivo [11] [h] | total protein half-life in vivo [12] [h]
MAEITASLVKELRERTGAGMMDCKKALTEANGDIELAIENMRKSGAIKAAKKAGNVAADGVIKTKIDGNYGIILEVNCQTDFVAKDAGFQAFADKVLDAAVAGKITDVEVLKAQFEEERVALVAKIGENINIRRVAALEGDVLGSYQHGARIGVLVAAKGADEELVKHIAMHVAASKPEFIKPEDVSAEVVEKEYQVQLDIAMQSGKPKEIAEKMVEGRMKKFTGEVSLTGQPFVMEPSKTVGQLLKEHNAEVTGFIRFEVGEGIEKVETDFAAEVAAMSKQS [P0A6P1] | 5.89 ± 0.95 | 5.2 ± 0.35 | 4.6 ± 0.21 | 4.91 ± 0.42 | 4.328 ± 0.029 | 3.06 ± 0.14 | 5.84 ± 0.24 | 10.9 ± 1.2 | 4.62 ± 0.2 | 7.22 ± 0.41 | 5.66 ± 0.061 | 12.21 ± 0.018
MKFTVEREHLLKPLQQVSGPLGGRPTLPILGNLLLQVADGTLSLTGTDLEMEMVARVALVQPHEPGATTVPARKFFDICRGLPEGAEIAVQLEGERMLVRSGRSRFSLSTLPAADFPNLDDWQSEVEFTLPQATMKRLIEATQFSMAHQDVRYYLNGMLFETEGEELRTVATDGHRLAVCSMPIGQSLPSHSVIVPRKGVIELMRMLDGGDNPLRVQIGSNNIRAHVGDFIFTSKLVDGRFPDYRRVLPKNPDKHLEAGCDLLKQAFARAAILSNEKFRGVRLYVSENQLKITANNPEQEEAEEILDVTYSGAEMEIGFNVSYVLDVLNALKCENVRMMLTDSVSSVQIEDAASQSAAYVVMPMRL [P0A988] | 5.92 ± 0.28 | 5.79 ± 1.1 | 5.35 ± 0.51 | 5.42 ± 0.064 | 4.45 ± 0.074 | 3.11 ± 0.14 | 5.98 ± 0.39 | 11.3 ± 0.35 | 4.84 ± 0.25 | 7.77 ± 0.12 | 5.93 ± 0.3 | 11.8 ± 0.36
MKNATFYLLDNDTTVDGLSAVEQLVCEIAAERWRSGKRVLIACEDEKQAYRLDEALWARPAESFVPHNLAGEGPRGGAPVEIAWPQKRSSSRRDILISLRTSFADFATAFTEVVDFVPYEDSLKQLARERYKAYRVAGFNLNTATWK | 4.98 ± 0.28 | 4.74 ± 0.71 | 5.3 | 6.04 ± 0.24 | 4.46 ± 0.2 | – | – | 10.8 ± 2.7 | 4.77 ± 1.3 | 8.61 ± 0.77 | 5.13 ± 0.14 | 13.8 ± 3
MLKNLAKLDQTEMDKVNVDLAAAGVAFKERYNMPVIAEAVEREQPEHLRSWFRERLIAHRLASVNLSRLPYEPKLK [P0ABS8] | 4.2 | – | – | – | – | – | – | – | – | – | – | –
MRWYPWLRPDFEKLVASYQAGRGHHALLIQALPGMGDDALIYALSRYLLCQQPQGHKSCGHCRGCQLMQAGTHPDYYTLAPEKGKNTLGVDAVREVTEKLNEHARLGGAKVVWVTDAALLTDAAANALLKTLEEPPAETWFFLATREPERLLATLRSRCRLHYLAPPPEQYAVTWLSREVTMSQDALLAALRLSAGSPGAALALFQGDNWQARETLCQALAYSVPSGDWYSLLAALNHEQAPARLHWLATLLMDALKRHHGAAQVTNVDVPGLVAELANHLSPSRLQAILGDVCHIREQLMSVTGINRELLITDLLLRIEHYLQPGVVLPVPHL | 5.96 ± 1 | 5.67 ± 0.35 | – | 5.56 | – | 3.14 ± 0.54 | 5.66 ± 0.25 | 11.3 | 6.28 | 8.28 ± 0.98 | 4.99 ± 0.62 | 10.245 ± 0.0054
MSEPRFVHLRVHSDYSMIDGLAKTAPLVKKAAALGMPALAITDFTNLCGLVKFYGAGHGAGIKPIVGADFNVQCDLLGDELTHLTVLAANNTGYQNLTLLISKAYQRGYGAAGPIIDRDWLIELNEGLILLSGGRMGDVGRSLLRGNSALVDECVAFYEEHFPDRYFLELIRTGRPDEESYLHAAVELAEARGLPVVATNDVRFIDSSDFDAHEIRVAIHDGFTLDDPKRPRNYSPQQYMRSEEEMCELFADIPEALANTVEIAKRCNVTVRLGEYFLPQFPTGDMSTEDYLVKRAKEGLEERLAFLFPDEEERLKRRPEYDERLETELQVINQMGFPGYFLIVMEFIQWSKDNGVPVGPGRGSGAGSLVAYALKITDLDPLEFDLLFERFLNPERVSMPDFDVDFCMEKRDQVIEHVADMYGRDAVSQIITFGTMAAKAVIRDVGRVLGHPYGFVDRISKLIPPDPGMTLAKAFEAEPQLPEIYEADEEVKALIDMARKLEGVTRNAGKHAGGVVIAPTKITDFAPLYCDEEGKHPVTQFDKSDVEYAGLVKFDFLGLRTLTIINWALEMINKRRAKNGEPPLDIAAIPLDDKKSFDMLQRSETTAVFQLESRGMKDLIKRLQPDCFEDMIALVALFRPGPLQSGMVDNFIDRKHGREEISYPDVQWQHESLKPVLEPTYGIILYQEQVMQIAQVLSGYTLGGADMLRRAMGKKKPEEMAKQRSVFAEGAEKNGINAELAMKIFDLVEKFAGYGFNKSHSAAYALVSYQTLWLKAHYPAEFMAAVMTADMDNTEKVVGLVDECWRMGLKILPPDINSGLYHFHVNDDGEIVYGIGAIKGVGEGPIEAIIEARNKGGYFRELFDLCARTDTKKLNRRVLEKLIMSGAFDRLGPHRAALMNSLGDALKAADQHAKAEAIGQADMFGVLAEEPEQIEQSYASCQPWPEQVVLDGERETLGLYLTGHPINQYLKEIERYVGGVRLKDMHPTERGKVITAAGLVVAARVMVTKRGNRIGICTLDDRSGRLEVMLFTDALDKYQQLLEKDRILIVSGQVSFDDFSGGLKMTAREVMDIDEAREKYARGLAISLTDRQIDDQLLNRLRQSLEPHRSGTIPVHLYYQRADARARLRFGATWRVSPSDRLLNDLRGLIGSEQVELEFD | 5.61 ± 0.071 | 6.7 ± 1 | 3.27 ± 0.39 | 3.89 ± 0.36 | 2.9 ± 0.08 | 2.76 ± 0.063 | 4.82 ± 0.6 | 7.83 ± 0.7 | 3.38 ± 0.12 | 5.01 ± 0.17 | 4.659 ± 0.022 | 8.12 ± 0.42
MSTAITRQIVLDTETTGMNQIGAHYEGHKIIEIGAVEVVNRRLTGNNFHVYLKPDRLVDPEAFGVHGIADEFLLDKPTFAEVADEFMDYIRGAELVIHNAAFDIGFMDYEFSLLKRDIPKTNTFCKVTDSLAVARKMFPGKRNSLDALCARYEIDNSKRTLHGALLDAQILAEVYLAMTGGQTSMAFAMEGETQQQQGEATIQRIVRQASKLRVVFATDEEIAAHEARLDLVQKKGGSCLWRA | 3.05 ± 0.18 | 2.05 ± 0.76 | 1.07 ± 0.32 | 1.11 ± 0.054 | 0.973 ± 0.04 | 0.847 ± 0.019 | 2.13 ± 1.2 | 2.57 ± 1.2 | 1.058 ± 0.0019 | 1.14 ± 0.05 | 1.22 ± 0.26 | 2.26 ± 0.95
MSYQVLARKWRPQTFADVVGQEHVLTALANGLSLGRIHHAYLFSGTRGVGKTSIARLLAKGLNCETGITATPCGVCDNCREIEQGRFVDLIEIDAASRTKVEDTRDLLDNVQYAPARGRFKVYLIDEVHMLSRHSFNALLKTLEEPPEHVKFLLATTDPQKLPVTILSRCLQFHLKALDVEQIRHQLEHILNEEHIAHEPRALQLLARAAEGSLRDALSLTDQAIASGDGQVSTQAVSAMLGTLDDDQALSLVEAMVEANGERVMALINEAAARGIEWEALLVEMLGLLHRIAMVQLSPAALGNDMAAIELRMRELARTIPPTDIQLYYQTLLIGRKELPYAPDRRMGVEMTLLRALAFHPRMPLPEPEVPRQSFAPVAPTAVMTPTQVPPQPQSAPQQAPTVPLPETTSQVLAARQQLQRVQGATKAKKSEPAAATRARPVNNAALERLASVTDRVQARPVPSALEKAPAKKEAYRWKATTPVMQQKEVVATPKALKKALEHEKTPELAAKLAAEAIERDPWAAQVSQLSLPKLVEQVALNAWKEESDNAVCLHLRSSQRHLNNRGAQQKLAEALSMLKGSTVELTIVEDDNPAVRTPLEWRQAIYEEKLAQARESIIADNNIQTLRRFFDAELDEESIRPI | 4.86 ± 0.35 | 4.21 ± 0.06 | 3.22 ± 0.034 | 3.39 ± 0.42 | 2.85 ± 0.051 | 2.63 ± 0.23 | 4.43 ± 0.12 | 6.79 ± 0.25 | 3.28 ± 0.052 | 4.71 ± 0.33 | 4.22 ± 0.25 | 8.12 ± 0.2
